The chains behind the UniProt entries cited, without tags or fusion partners.
UniProt P37288, whole entry: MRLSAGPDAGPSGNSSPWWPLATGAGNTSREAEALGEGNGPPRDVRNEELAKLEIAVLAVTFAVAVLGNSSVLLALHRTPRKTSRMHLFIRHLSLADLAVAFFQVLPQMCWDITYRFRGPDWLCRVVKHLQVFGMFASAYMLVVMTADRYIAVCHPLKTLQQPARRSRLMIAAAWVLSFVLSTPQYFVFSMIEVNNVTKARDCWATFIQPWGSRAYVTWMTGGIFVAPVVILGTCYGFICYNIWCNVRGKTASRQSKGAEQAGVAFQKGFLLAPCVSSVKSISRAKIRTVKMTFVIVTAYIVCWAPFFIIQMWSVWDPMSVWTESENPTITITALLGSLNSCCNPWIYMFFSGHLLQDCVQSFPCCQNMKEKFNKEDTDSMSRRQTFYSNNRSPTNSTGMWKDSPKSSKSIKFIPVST
UniProt P30518, whole entry: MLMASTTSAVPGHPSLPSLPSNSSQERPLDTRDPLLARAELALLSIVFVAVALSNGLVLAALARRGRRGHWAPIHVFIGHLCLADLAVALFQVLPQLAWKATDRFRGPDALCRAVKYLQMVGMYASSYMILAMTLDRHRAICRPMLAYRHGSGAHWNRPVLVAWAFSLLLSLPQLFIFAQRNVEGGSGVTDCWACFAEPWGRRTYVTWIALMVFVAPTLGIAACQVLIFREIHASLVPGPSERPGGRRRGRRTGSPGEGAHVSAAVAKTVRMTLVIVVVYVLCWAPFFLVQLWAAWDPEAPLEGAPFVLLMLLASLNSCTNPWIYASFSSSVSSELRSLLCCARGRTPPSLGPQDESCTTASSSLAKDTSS

In patent US11173151B2, “Substituted triazole derivatives and uses thereof” (BAYER AKTIENGESELLSCHAFT, priority 2017, dated 2021):

How the values were obtained:
human V1a receptor = human V1a receptor (Homo sapiens, UniProt P37288); experiment: Cellular in vitro assay for determining vasopressin receptor activity, V1a receptor cell line (CHO, aequorin luminescence)
Experimental: (§1) B-1. Cellular In Vitro Assay for Determining Vasopressin Receptor Activity
(§2) The identification of agonists and antagonists of the V1a and V2 vasopressin receptors from humans, rats and dogs as well as the quantification of the activity of the compounds of the invention is carried out using recombinant cell lines. These cell lines originally derive from a hamster's ovary epithelial cell (Chinese Hamster Ovary, CHO K1, ATCC: American Type Culture Collection, Manassas, Va. 20108, USA). The test cell lines constitutively express the human, rat or dog V1a or V2 receptors. […] The resulting vasopressin receptor cells react to stimulation of the recombinantly expressed V1a receptors by intracellular release of calcium ions, which can be quantified by the resulting photoprotein luminescence. […] The bioluminescence of the cell lines is detected using a suitable luminometer [Milligan G, Marshall F, Rees S, Trends in Pharmacological Sciences 17, 235-237 (1996)]. […]
On the day before the assay, the cells are plated out in culture medium (DMEM/F12, 2% FCS, 2 mM glutamine, 10 mM HEPES, 5 μg/ml coelenterazine) in 384-well microtiter plates and kept in a cell incubator (96% humidity, 5% v/v CO2, 37° C.). […] The resulting light signal is measured immediately in a luminometer. […]

human V2 receptor = human V2 receptor (Homo sapiens, UniProt P30518); experiment: Cellular in vitro assay for determining vasopressin receptor activity, V2 receptor cell line (CHO, CRE-luciferase); settings: read-out: IC50 hV2; CHO cell line transfected with human V2 receptor; [Arg8]-vasopressin at EC50 concentration, 3 hours
Experimental: as §1, §2
On the day before the assay, the cells are plated out in culture medium (DMEM/F12, 2% FCS, 2 mM glutamine, 10 mM HEPES) in 384-well microtiter plates and kept in a cell incubator (96% humidity, 5% v/v CO2, 37° C.). […] Upon addition of the cell lysis reagent Triton™ and the substrate luciferin, luminescence of firefly luciferase is measured in a luminometer. […]

pIC50 (human V1a receptor; read-out: IC50 hV1a, CHO cell line transfected with human V1a receptor, [Arg]-vasopressin at EC50 concentration): 7.57
ratio IC50 hV2/hV1a (human V1a receptor; selectivity ratio IC50 hV2 / IC50 hV1a): 50.0
pIC50 (human V2 receptor): 5.87
Compound: COCC(=O)Nc1ncccc1-n1cnc(Cn2nc(-c3ccc(Cl)cc3)n(C[C@H](O)C(F)(F)F)c2=O)n1

pIC50: −log10 of the molar value.
